RAD52 anneal inh: blocks human RAD52 DNA annealing; inhibition, % at 18.7 µM; 0.46% of 360,000 active; recombinant RAD52 DNA annealing, FRET fluorescence;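 active = every replicate showing at least 50% inhibition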
INS-1E GSIS act: primary screen for activators of insulin secretion dependent on glucose, INS-1E cells, GLuc reporter luminescence | INS-1E GLuc reporter insulin secretion, 2-3 h | activation, % at 16.6 µM | 0.61% of 370,000 active | AID 743287;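 active = lowest replicate activation of at least 40%, so every replicate reaches that level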;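 note: 0% = median of neutral control wells and 100% = median of IBMX positive control wells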
Casp6 inh: caspase-6 (human) enzyme inhibition. P55212. purified caspase-6, Z-VEID-R110 cleavage fluorescence. inhibition, % at 12.5 µM. 0.53% of 350,000 active. AID 686996;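 active = mean inhibition across replicates at least about 35%, with every replicate also reaching that limit, limit read from the data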;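 note: 0% = median of neutral control wells and 100% = no fluorescence left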
RAD54 branch: blocks human RAD54 Holliday junction branch migration | FAM/BHQ fluorescence | inhibition, % at 10.4 µM | AID 602329 | 0.14% of 360,000 active;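 active = mean normalized replicate activity at least 40 and at least half of replicates scoring 40 or more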;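 note: 0% = median of neutral control wells and 100% = median of positive control wells; inhibitors cause a drop in the FAM fluorescence signal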
PglD DTNB: inhibitors of Campylobacter jejuni PglD acetyltransferase | inhibition, % at 12.5 µM | 0.098% of 360,000 active | AID 602405 | purified PglD enzyme, DTNB colorimetric CoA detection; in the data active = inhibition above about 16%, passing the limit was not always enough
UUG fidelity: modulators of yeast start codon fidelity, primary screen, whole organism, S. cerevisiae, single point, plate reader | AID 602363, 2012 | S. cerevisiae UUG-firefly luciferase reporter, luminescence/redox ratio | activity score, % at 18.7 µM | hit rate 0.13% among 350,000;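 active = replicate mean at a twofold rise or more, about +100% in these data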;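 also: firefly luciferase made from a UUG start codon reports start codon fidelity; reporter light over untreated wells divided by growth signal over untreated wells; some hits fall short of that in this replicate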
* hit, by the source's call; ! = a repeat was not active. Sampled rows, rich in hits. Any-hit rate of the full collection: about 1.5%.

`N#Cc1cccc(-c2ccc([C@@H]3[C@@H]4CN(S(=O)(=O)c5ccc(-c6ccccc6)cc5)C[C@H]3N4)cc2)c1` gave RAD52 anneal inh -7, INS-1E GSIS act 556* and Casp6 inh 2.
`N#Cc1cccc(-c2ccc(C3[C@@H]4CN(S(=O)(=O)c5ccccc5)C[C@H]3N4)cc2)c1` (some centres not stated) gave RAD52 anneal inh 46, INS-1E GSIS act -7 and Casp6 inh 27.
`N#Cc1cccc(-c2ccc(C3[C@@H]4CN(S(=O)(=O)c5ccc(F)cc5)C[C@H]3N4)cc2)c1` (some centres not stated) gave RAD52 anneal inh 13, INS-1E GSIS act -22 and Casp6 inh 3.
Screening Cc1ccc(S(=O)(=O)N2C[C@@H]3N[C@H](C2)C3c2ccc(-c3cccc(C#N)c3)cc2)cc1 (some centres not stated) returned RAD52 anneal inh 82*!, INS-1E GSIS act 19 and Casp6 inh -1.
CCOC(=O)C1=NN(C(=O)Cc2ccccc2)C(O)(c2ccc(Cl)cc2)C1 (configuration not stated) was read as INS-1E GSIS act -24, RAD54 branch -5, PglD DTNB -1 and UUG fidelity 4.
`CC(NC(=O)CN1c2cccc3cccc(c23)S1(=O)=O)c1ccccc1` (configuration not stated) gave RAD52 anneal inh -22, INS-1E GSIS act -9, Casp6 inh 8, RAD54 branch 4, PglD DTNB -3 and UUG fidelity 3.
`CC(NC(=O)CN1c2cccc3cccc(c23)S1(=O)=O)c1ccc(S(N)(=O)=O)cc1` (configuration not stated) gave RAD52 anneal inh -13, INS-1E GSIS act -23, Casp6 inh 56*, RAD54 branch -3, PglD DTNB -3 and UUG fidelity -12.
Screening Cc1ccc(C(=O)NCc2ccc3c(c2)OCO3)o1 returned RAD52 anneal inh -10, INS-1E GSIS act 1, Casp6 inh -3, RAD54 branch -2, PglD DTNB -1 and UUG fidelity 8.
`Cc1noc(C)c1NC(=O)Nc1ccc2c(c1)CC(=O)N([C@@H](C)CO)C[C@H](C)[C@@H](CN(C)S(=O)(=O)c1ccc(F)cc1)O2` gave RAD52 anneal inh -14, INS-1E GSIS act 1, Casp6 inh 1, RAD54 branch -9, PglD DTNB -3 and UUG fidelity -11.
Cc1ccc(-c2csc(NS(=O)(=O)c3cccc(F)c3)n2)o1 was read as RAD52 anneal inh -75, Casp6 inh 41*, RAD54 branch -4, PglD DTNB 2 and UUG fidelity -24.
For COc1ccc(NC(=O)CC(Cc2ccc(Cl)cc2)C(=O)O)cc1 (configuration not stated) the results were RAD52 anneal inh -5, INS-1E GSIS act -6 and Casp6 inh -3.
For Cn1cc(C(CC(=O)O)C(=O)O)c2ccccc21 (configuration not stated) the results were RAD52 anneal inh -6, INS-1E GSIS act 4, Casp6 inh 43*, RAD54 branch 0, PglD DTNB 0 and UUG fidelity 4.
For C[C@H](CO)N1C[C@H](C)[C@@H](CN(C)C(=O)C2CCC2)Oc2ncc(C#Cc3ccccc3F)cc2C1=O the results were RAD52 anneal inh 1, INS-1E GSIS act -9, Casp6 inh 2, RAD54 branch 3, PglD DTNB 3 and UUG fidelity 11.
For COC(C)(C)c1cc(C(C)(C)C)nc(N)n1 the results were INS-1E GSIS act 48*, RAD54 branch 3, PglD DTNB 1 and UUG fidelity -19.
`O=C(C[C@@H]1CC[C@@H]2[C@H](COC[C@H](O)CN2S(=O)(=O)c2ccccc2)O1)NCC1CCCCC1` gave RAD52 anneal inh 2, INS-1E GSIS act -2, Casp6 inh -2, RAD54 branch -6, PglD DTNB 1 and UUG fidelity 14.

3 compounds already listed, ordered by SMILES length, highest first:
`N#Cc1cccc(-c2ccc([C@@H]3[C@@H]4CN(S(=O)(=O)c5ccc(-c6ccccc6)cc5)C[C@H]3N4)cc2)c1` gave RAD52 anneal inh -7, INS-1E GSIS act 556* and Casp6 inh 2.
`CC(NC(=O)CN1c2cccc3cccc(c23)S1(=O)=O)c1ccccc1` (configuration not stated) gave RAD52 anneal inh -22, INS-1E GSIS act -9, Casp6 inh 8, RAD54 branch 4, PglD DTNB -3 and UUG fidelity 3.
Cc1ccc(-c2csc(NS(=O)(=O)c3cccc(F)c3)n2)o1 was read as RAD52 anneal inh -75, Casp6 inh 41*, RAD54 branch -4, PglD DTNB 2 and UUG fidelity -24.

Continuation:
For O=C(C[C@H]1CC[C@H]2[C@@H](COC[C@H](O)CN2S(=O)(=O)c2ccccc2)O1)NCC1CCCCC1 the results were RAD52 anneal inh 83*, INS-1E GSIS act -15, Casp6 inh 0, RAD54 branch -1, PglD DTNB -1 and UUG fidelity 18.
`O=C(O)C[C@H]1CC[C@@H]2[C@H](COC[C@@H](O)CN2S(=O)(=O)c2ccc(Oc3ccccc3)cc2)O1` gave RAD52 anneal inh -16, INS-1E GSIS act 3, Casp6 inh 10, RAD54 branch -9 and PglD DTNB 1.
Screening O=C(O)C[C@H]1CC[C@H]2[C@@H](COC[C@H](O)CN2S(=O)(=O)c2ccc(Oc3ccccc3)cc2)O1 returned RAD52 anneal inh -5, INS-1E GSIS act 3, Casp6 inh 40*, RAD54 branch -21 and PglD DTNB -2.
Screening O=C(C[C@H]1CC[C@@H]2[C@H](COC[C@@H](O)CN2S(=O)(=O)c2ccccc2)O1)NCC1CCCCC1 returned RAD52 anneal inh 94*, Casp6 inh 0, RAD54 branch -3, PglD DTNB -5 and UUG fidelity 6.
COc1ccccc1S(=O)(=O)Nc1ccc2nc(C)sc2c1 was read as RAD52 anneal inh -9, INS-1E GSIS act -2, Casp6 inh 1, RAD54 branch -1, PglD DTNB -3 and UUG fidelity -22.
For COc1cc2sc(C)nc2c2ccccc12 the results were RAD52 anneal inh 4, INS-1E GSIS act 19, Casp6 inh 40*, RAD54 branch -3, PglD DTNB 7 and UUG fidelity -17.
`CCN(c1ccccc1)c1nc(=O)c2cccnc2s1` gave RAD52 anneal inh -6, INS-1E GSIS act 8, Casp6 inh 4, RAD54 branch -6, PglD DTNB -2 and UUG fidelity -1.
CC12CCC(c3c(C(=O)N4CCOCC4)nn(-c4ccccc4)c31)C2(C)C (configuration not stated) was read as RAD52 anneal inh -4, INS-1E GSIS act 2 and Casp6 inh 1.
CCOc1ccc(C(=O)NC2CCN(CC(=O)NCc3ccccc3)CC2)cc1 was read as RAD52 anneal inh -7, INS-1E GSIS act 6, Casp6 inh 2, RAD54 branch 2, PglD DTNB -3 and UUG fidelity -13.
CN(C)CCCNc1cc(C(C)(C)C)nc2c(-c3ccc(Cl)cc3)cnn12 was read as RAD52 anneal inh 29, INS-1E GSIS act 411*, Casp6 inh -1, RAD54 branch 9, PglD DTNB 1 and UUG fidelity -24.
CCN(CC)Cc1cc(Nc2c3ccccc3nc3c4ccccc4n(C)c23)cc(CN(CC)CC)c1O was read as RAD52 anneal inh 106*, INS-1E GSIS act -30 and Casp6 inh -52.
For CN1CCCCC(NC(=O)COCc2ccccc2)C1=O (configuration not stated) the results were RAD52 anneal inh -1, INS-1E GSIS act 10 and Casp6 inh 38*.

Source: PubChem
